Reference: patent publication US8569343B2, “Oligomer-opioid agonist conjugates” (Nektar Therapeutics, priority 2007, dated 2013)

Protein sequences, listed by entry. Tags and fused reporters are not part of them. Lines headed by an entry give the natural chain unless they say otherwise; changes in a name come on top.
UniProt P41145: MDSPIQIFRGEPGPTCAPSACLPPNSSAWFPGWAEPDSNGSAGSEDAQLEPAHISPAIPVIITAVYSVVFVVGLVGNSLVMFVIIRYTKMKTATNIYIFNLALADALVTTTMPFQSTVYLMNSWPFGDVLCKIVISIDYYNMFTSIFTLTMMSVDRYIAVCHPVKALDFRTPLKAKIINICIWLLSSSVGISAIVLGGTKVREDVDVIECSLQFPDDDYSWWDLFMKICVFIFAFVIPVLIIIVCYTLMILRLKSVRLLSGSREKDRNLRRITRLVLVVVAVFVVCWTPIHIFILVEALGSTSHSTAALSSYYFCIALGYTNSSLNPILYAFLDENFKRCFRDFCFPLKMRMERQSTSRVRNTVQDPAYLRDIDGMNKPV

What follows are substances tested against T1, cloned human kappa opioid receptor (Homo sapiens, UniProt P41145).
T1 construct: expressed in transfected cells; host or cells: CHO cells
Format: cell-based

Row | Substance | EC50
1 | α-6-mPEG7-O-codeine | > 500 µM
2 | α-6-mPEG3-O-codeine | > 500 µM
3 | α-6-mPEG9-O-codeine | > 500 µM
